In this assay the target is T1, 17-beta-hydroxysteroid dehydrogenase type 2 (Homo sapiens, UniProt P37059).
T1 sequence (P37059 whole entry): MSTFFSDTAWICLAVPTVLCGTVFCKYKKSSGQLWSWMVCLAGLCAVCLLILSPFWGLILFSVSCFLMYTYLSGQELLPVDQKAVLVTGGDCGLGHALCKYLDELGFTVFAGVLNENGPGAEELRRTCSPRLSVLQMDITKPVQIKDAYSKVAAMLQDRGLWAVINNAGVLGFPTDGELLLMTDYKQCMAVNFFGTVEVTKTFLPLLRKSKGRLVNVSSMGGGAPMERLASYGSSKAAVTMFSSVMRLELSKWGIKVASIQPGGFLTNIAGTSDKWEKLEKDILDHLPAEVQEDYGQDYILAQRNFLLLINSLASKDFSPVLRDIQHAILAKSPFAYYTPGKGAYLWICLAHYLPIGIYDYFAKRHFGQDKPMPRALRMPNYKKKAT
Briefly: Inhibition of human placental microsomal 17beta-HSD2 using [2,4,6,7-3H]-E2 as substrate after 20 mins in presence of NAD+ by RP-HPLC method.

pIC50: −log10 of the molar value.

A word on the pIC50: it is −log10 of the IC50, conventionally taken in molar units.

For the molecule `COc1c(C)cc(-c2ccc(C(=O)c3c(F)ccc(O)c3F)s2)cc1Cl`, the pIC50 was 8.14.
As to `Cc1cc(-c2ccc(C(=O)c3c(F)ccc(O)c3F)s2)cc(Cl)c1O`, the pIC50 was 8.19.
